Results as given in patent publication US11419944B2, “Non-linear self-immolative linkers and conjugates thereof” (priority 2016, dated 2022).

Tested on: HER2-positive cell line SK-BR-3
Assay: In vitro cytotoxicity of anti-HER2 ADCs
Type: cell-based, human
Conditions: relative IC50

In the case of “Trastuzumab-LD1: wild-type trastuzumab conjugated to linear linker-drug compound 1 (vc-seco-DUBA) [reference compound]”, the IC50 is reported as 180 pM.
